In patent US20250205178A1, “METHODS AND COMPOSITIONS FOR INHIBITING VIRAL […]” (ARIZONA BOARD OF REGENTS ON BEHALF OF THE UNIVERSITY OF …, priority 2022, published 2025):

Test system: ZIKV (ZIKA-Venus)

| Compound | EC50 [nM] |
| --- | --- |
| CC(=O)c1cc(O)c2ccccc2c1O [NSC 111552] | 1400 |
| COCCn1c2nc(=O)n(-c3ccccc3)c(=O)c-2nc2ccccc21 [NSC 288387] | 200 |
